Test system: UC5 and Scaber cells
Assay: Effects of gefitinib on EGFR and STAT3 phosphorylation and p63 expression
Assay type: cell-based, human

SMILES: COc1cc2ncnc(Nc3ccc(F)c(Cl)c3)c2cc1OCCCN1CCOCC1 [gefitinib]
- STAT3 phosphorylation: inhibition
- expression of p63, P-cadherin, and cytokeratins 5 and 14: downregulation

From patent US20150292030A1, “METHODS OF CHARACTERIZING AND TREATING MOLECULAR SUBSET OF MUSCLE-INVASIVE BLADDER CANCER” (BOARD OF REGENTS, THE UNIVERSITY OF TEXAS SYSTEM, priority 2012, published 2015)
